These results are taken from publication PMC3655598, “Application of IgG-Derived Natural Treg Epitopes (IgG Tregitopes) to Antigen-Specific Tolerance Induction in a Murine Model of Type 1 Diabetes” (Journal of Diabetes Research, 2013).

In assay [1] the target is T1, DRB1*0401 (Homo sapiens, UniProt P01903+P01911, A100K/A169T/F76Y/I96L/K127E/L162R/M171V/N62H/P40V/Q125Y/R42H/S133A/S149N/S66Y/V115G/V209L/W38E). Kind of assay: biochemical.
Assay [2] concerns the target DRB1*0701 (Homo sapiens, UniProt P01903+P01911, A100R/A102G/A103Q/D57E/D86V/E43K/F76Y/K127E/L162R/M171V/P40G/Q125H/Q99D/R33Q/R42Y/R54Q/S133A/S66F/T210M/V115G/Y107V/Y59L/Y89S). Kind of assay: biochemical.
Assay [3] has as its target T2, DRB1*0101 (Homo sapiens, UniProt P01903+P01911, A100R/D57E/F55L/F60I/F76Y/I96L/L162R/M171V/P40L/Q125E/R42F/V115G/Y59C). The conditions noted are these: read-out: DRB1*0101 IC50; competition with biotin-Flu-HA 306–318 at 0.1 μM, 24 h, 37°C; NB = non-binder.
Assay [4] has as its target T3, DRB1*1501 (Homo sapiens, UniProt P01903+P01911).
T3 construct: gift: William Kwok, Benaroya Institute, Seattle
Nature of the assay: competition-based HLA binding assay. The note with it: competition with biotin-MBP 84–102 at 0.5 μM, 24 h, 37°C; NB = non-binder.

Assay [5] concerns the target T1, DRB1*0401. The note with it: read-out: DRB1*0401 IC50.
Assay [6] has as its target T2, DRB1*0101. Kind of assay: biochemical.

Where two headings read alike, the source gives them in different places.

In the case of `CC[C@H](C)[C@H](NC(=O)[C@H](CCCCN)NC(=O)[C@H](Cc1ccc(O)cc1)NC(=O)[C@H](CCCCN)NC(=O)[C@H](CCCCN)NC(=O)[C@@H](N)CS)C(=O)N[C@@H](Cc1c[nH]c2ccccc12)C(=O)N[C@@H](CCSC)C(=O)N[C@@H](Cc1c[nH]cn1)C(=O)N[C@H](C(=O)N[C@@H](CC(=O)O)C(=O)N[C@@H](C)C(=O)N[C@@H](C)C(=O)N[C@@H](Cc1c[nH]c2ccccc12)C(=O)NCC(=O)NCC(=O)NCC(=O)N[C@@H](CC(C)C)C(=O)N[C@@H](CC(C)C)C(=O)O)C(C)C` [GAD65_354–372], the IC50 is 6.4 µM in assay [1], less than 5 µM in assay [2], greater than 50 µM in assay [3] and greater than 50 µM in assay [4].
With `CC[C@H](C)[C@H](NC(=O)[C@H](Cc1ccc(O)cc1)NC(=O)[C@H](Cc1c[nH]c2ccccc12)NC(=O)[C@H](Cc1ccccc1)NC(=O)[C@H](CS)NC(=O)[C@@H](N)C(C)C)C(=O)N1CCC[C@H]1C(=O)N1CCC[C@H]1C(=O)N[C@@H](CO)C(=O)N[C@@H](CC(C)C)C(=O)N[C@@H](CCCNC(=N)N)C(=O)N[C@H](C(=O)N[C@@H](CC(C)C)C(=O)N[C@@H](CCC(=O)O)C(=O)N[C@@H](CC(=O)O)C(=O)O)[C@@H](C)O` [GAD65_504–518], the IC50 was 25.2 µM in assay [2], greater than 50 µM in assay [5], 95.8 µM in assay [6] and 10.3 µM in assay [4].

In general, IC50 refers to the concentration needed to halve the response being measured.
